Several values for one entry are separate records, joined by “and”; a condition that tells them apart may be missing. Equal values may be shown once. Read-outs that look alike come from different tables or passages of the source.
Tests used:
[1] = test system: Influenza A virus subtype H1N1 (strain A/California/07/2009); conditions: mouse, in vivo
[2] = test system: Influenza A virus subtype H1N1 (strain A/California/07/2009); conditions: for Total pathological score, Mean ± SD: group mean
[3] = Day 5 after viral challenge, individual animals
[4] = Day 14 after viral challenge, individual animals

CCOC(=O)C1=C[C@@H](OC(CC)CC)[C@H](NC(C)=O)[C@@H](N)C1 [Oseltamivir, oseltamivir]
survival rate [1]: 62.5%
Total pathological score, Mean ± SD ([2]; Day 5 after viral challenge): 10.67±3.51
Alveolar septum and perivascular infiltration of inflammatory cells [2, 3]: 2 (2×) and 3
Alveolar septum widening [2, 3]: 2 (2×) and 3
Bronchial epithelial cell degeneration and necrosis [2, 3]: 2 (2×) and 3
Total score [2, 3]: 7 and 14 and 11
Vasodilatation congestion [2, 3]: 1 and 2 (2×)
lung injury (histopathological evaluation and morphological changes) ([2]; Day 5 and Day 14, in comparison to model control group): reduced
Total pathological score, Mean ± SD ([2]; Day 14 after viral challenge): 15.40±1.95
Alveolar septum and perivascular infiltration of inflammatory cells [2, 4]: 3 (3×) and 2 and 4
Alveolar septum widening [2, 4]: 3 (3×) and 2 and 4
Bronchial epithelial cell hyperplasia [2, 4]: 2
Exudation of inflammatory cells, serous, and cellulose in the alveolar cavity [2, 4]: 2 (3×) and 3 (2×)
Vasodilatation congestion [2, 4]: 4

— patent US20230079150A1, “METHODS FOR PREVENTION OR TREATMENT OF VIRUS-INDUCED ORGAN INJURY OR FAILURE WITH IL-22 DIMER” (priority 2020, published 2023)
